Measurements taken from patent US20060014785A1, “BICYCLIC, SUBSTITUTED TRIAZOLES AS MODULATORS OF PPAR AND METHODS OF THEIR PREPARATION” (Metabolex, Inc., priority 2004, published 2006).

Chains of the proteins cited; added tags and fusions are not shown. Lines headed by an entry give the natural chain unless they say otherwise; changes in a name come on top. Residues count along the entry.
UniProt P23204, 239-466 limits assumed: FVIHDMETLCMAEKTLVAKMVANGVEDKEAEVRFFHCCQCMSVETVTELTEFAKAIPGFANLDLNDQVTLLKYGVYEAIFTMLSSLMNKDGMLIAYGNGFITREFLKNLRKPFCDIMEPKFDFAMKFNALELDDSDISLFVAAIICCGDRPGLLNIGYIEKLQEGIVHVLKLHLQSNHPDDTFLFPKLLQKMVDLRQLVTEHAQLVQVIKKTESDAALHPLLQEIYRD
UniProt P35396, 210-438 limits assumed: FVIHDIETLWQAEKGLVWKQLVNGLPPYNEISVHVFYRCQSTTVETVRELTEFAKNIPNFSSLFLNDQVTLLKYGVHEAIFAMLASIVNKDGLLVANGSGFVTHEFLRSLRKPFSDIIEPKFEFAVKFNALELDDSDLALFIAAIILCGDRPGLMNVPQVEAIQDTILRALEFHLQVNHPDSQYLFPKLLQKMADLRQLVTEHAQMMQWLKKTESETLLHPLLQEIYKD
UniProt P37238, 238-503 limits assumed: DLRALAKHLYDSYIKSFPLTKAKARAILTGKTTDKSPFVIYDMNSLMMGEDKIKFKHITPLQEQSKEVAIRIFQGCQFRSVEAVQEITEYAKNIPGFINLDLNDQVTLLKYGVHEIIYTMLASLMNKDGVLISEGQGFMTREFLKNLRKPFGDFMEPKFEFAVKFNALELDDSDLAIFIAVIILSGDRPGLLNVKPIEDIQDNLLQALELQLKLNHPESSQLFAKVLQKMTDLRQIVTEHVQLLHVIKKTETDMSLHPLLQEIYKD

Experiments:
[1] = biological target: mouse PPAR α (Mus musculus, UniProt P23204); assay: PPAR alpha transactivation (GAL4 chimeric receptor luciferase reporter) assay; details: read-out: Gene Activation Assay: EC50 (<10 μM) PPAR alpha, pFR-Luc reporter, HEK293T cells, 20 hours incubation
Description: (§1) Measurement of PPARγ, δ, and α Transactivation Activity.
(§2) Chimeric receptors were constructed in which the yeast transcription factor GAL4 DNA binding domain was fused to the ligand binding domain of either mouse PPARγ, mouse PPARδ or mouse PPAR α in order to assess the ability of the compounds of the present invention to activate gene expression in a PPAR-dependent manner. The chimeric receptor expression plasmids (GAL4-mPPARγ, GAL4-mPPAR δ and GAL4-PPAR α) and the reporter plasmid containing 5×GAL4 binding site (pFR-Luc, obtained from Stratagene) were transfected into HEK293T cells using the Lipofectamine 2000 reagent (Invitrogen), according to the manufacturers instructions. Six hours after transfection, the culture medium was renewed and the cells were incubated for 20 hours in presence of either 1) DMSO (vehicle), 2) a compound of the invention or 3) a reference compound for comparison. Rosiglitazone (obtained from WDF Pharma) was used as a reference compound for the PPARγassay; GW501516 (prepared as described in Sznaidman et al. Bioorg. Med. Chem. Lett. (2003) 13:1517-1521) was used as a reference compound for the PPAR δ assay and GW7647 (obtained from Sigma) was used as a reference compound for the PPAR α assay. Luciferase activity was measured as a reporter of gene expression. Luciferase activity on the cell lysates using the Steady-Glo reagent was measured according to the manufacturers instructions.

[2] = biological target: mouse PPARδ (Mus musculus, UniProt P35396); assay: PPAR delta transactivation (GAL4 chimeric receptor luciferase reporter) assay; details: read-out: Gene Activation Assay: EC50 (<10 μM) PPAR delta; GAL4-mPPAR δ chimeric receptor, pFR-Luc reporter, HEK293T cells, 20 hours incubation
Description: as §1, §2

[3] = biological target: mouse PPARγ (Mus musculus, UniProt P37238); assay: PPAR gamma transactivation (GAL4 chimeric receptor luciferase reporter) assay; details: read-out: Gene Activation Assay: EC50 (<10 μM) PPAR gamma; GAL4-mPPARγ chimeric receptor, pFR-Luc reporter, HEK293T cells, 20 hours incubation
Description: as §1, §2

Row | Structure (SMILES) | EC50 [1] | EC50 [2] | EC50 [3]
1 | Cc1nn(-c2cccc(C(F)(F)F)c2)nc1COc1ccc2c(ccn2CC(=O)O)c1 | > 10 µM | < 10 µM | > 30 µM
2 | O=C(O)Cn1ccc2cc(OCc3nn(-c4ccc(C(F)(F)F)cc4)nc3C(F)(F)F)ccc21 | > 10 µM | < 10 µM | > 30 µM
3 | COc1ccc(-n2nc(C)c(COc3ccc4c(ccn4CC(=O)O)c3)n2)cc1 | > 10 µM | < 10 µM | > 30 µM
4 | O=C(O)Cc1coc2cc(OCc3nn(-c4ccc(C(F)(F)F)cc4)nc3-c3ccccc3)ccc12 | > 10 µM | < 10 µM | > 30 µM
5 | Cc1nn(-c2cc(C(F)(F)F)cc(C(F)(F)F)c2)nc1COc1ccc2c(CC(=O)O)coc2c1 | < 10 µM | < 10 µM | > 30 µM
6 | CC(C)c1nn(-c2ccc(C(F)(F)F)cc2)nc1Cn1ccc2cc(OCC(=O)O)ccc21 | > 10 µM | < 10 µM | > 30 µM
7 | CC(C)c1nn(-c2ccc(C(F)(F)F)cc2)nc1COc1ccc2c(ccn2CC(=O)O)c1 | > 10 µM | < 10 µM | > 10 µM
8 | Cc1nn(-c2ccc(Cl)c(Cl)c2)nc1COc1ccc2c(CC(=O)O)coc2c1 | > 10 µM | < 10 µM | > 30 µM
